Values of other authors, collected in publication PMC13062086, “A sstR2-targeted radiohybrid theranostic agent for PET imaging and β^- therapy with excellent preclinical performance” (npj Imaging, 2026).

Sequences of proteins named here, by UniProt entry; tags and fusion partners are left off. Residues count along the entry.
UniProt P02768, 25-609: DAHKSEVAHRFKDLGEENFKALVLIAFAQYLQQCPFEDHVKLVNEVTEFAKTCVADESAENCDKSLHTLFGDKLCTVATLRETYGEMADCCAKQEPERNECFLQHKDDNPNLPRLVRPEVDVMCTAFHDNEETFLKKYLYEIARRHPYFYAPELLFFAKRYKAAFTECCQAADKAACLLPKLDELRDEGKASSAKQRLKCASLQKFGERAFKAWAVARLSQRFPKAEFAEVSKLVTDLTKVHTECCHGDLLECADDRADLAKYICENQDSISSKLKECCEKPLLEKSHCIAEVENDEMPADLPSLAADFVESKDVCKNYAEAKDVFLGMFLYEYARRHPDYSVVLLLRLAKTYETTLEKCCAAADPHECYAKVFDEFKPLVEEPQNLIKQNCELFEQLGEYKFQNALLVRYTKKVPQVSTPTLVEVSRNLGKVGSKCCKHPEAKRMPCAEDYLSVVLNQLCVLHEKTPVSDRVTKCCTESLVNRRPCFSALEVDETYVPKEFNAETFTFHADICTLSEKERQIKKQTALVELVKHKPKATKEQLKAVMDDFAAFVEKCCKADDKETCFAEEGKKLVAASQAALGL

Target: T1, human serum albumin (HSA) (Homo sapiens, UniProt P02768)
T1 construct: purchased Daicel, Tokyo, Japan Chiralpak HSA column (50 × 3 mm, 5 μm, H13 h-2433)
Parameters: method as in earlier work
Conditions: literature-known values for calibration curve ref 2-3 (SI; main text 45, 46)

HSA-binding: 75.00%
Compound: NC(=O)N1c2ccccc2C=Cc2ccccc21 [Carbamazepine]
